Data taken from patent publication US8962670B2, “Anti-cancer agents” (UWM Research Foundation, Inc., priority 2011, dated 2015).

How the values were obtained:
[1] = system: NCI-H460 (Non-small Cell Lung Cancer cells); assay: Cancer cell growth inhibition (Example 14); conditions: 10 μM, 48 h
Protocol: (§1) The abilities of compounds 37, 38 and 40 to inhibit cancer cell growth were evaluated. Results are illustrated in FIG. 4A: Four human cancer cell lines (SR, NCI-H460, CAKI-1, and SN12C) were incubated with 10 μM of compounds 40, 38 and 37 for 48 h (grey bar—37; black bar—40; lined bar—38). […] .

[2] = system: SN12C (Renal Cancer cells); assay: Cancer cell growth inhibition (Example 14); conditions: 10 μM, 48 h
Protocol: as §1

49 mer DNA duplex 292 = conditions: 50 μM H2O2 + 100 μM compound

SMILES | inhibition [1] | inhibition [2] | cross-linking yield (49 mer DNA duplex 292) [%]
CN1CCOB(c2ccc(C[N+](C)(CCO)CCO)cc2)OCC1 | less toxic | less toxic | –
CC1(C)OB(c2ccc(C[N+](C)(CCCl)CCCl)cc2)OC1(C)C [Compound 40, N,N-Bis(2-chloroethyl)-N-methyl-N-[4-(4,4,5,5-tetramethyl-1,3,2-dioxaborolan-2-yl)phenyl]methanaminium bromide] | – | – | 2.2
